Among the data in publication PMC6303327 (2018) are response values, retold here.

First the molecules themselves.
B1: Rfa1 DNA-binding domain-A (DBD-A), residues 178-294 [S. cerevisiae] / Rfa3 DNA-binding domain-E (DBD-E), OB domain, residues 1-99 [modified: fluorescent label NT-495 (Monolith NT protein-labeling Kit Blue-Cys) on free cysteine residues; … (parent complex)
chain 1: SQKTRPIFAIEQLSPYQNVWTIKARVSYKGEIKTWHNQRGDGKLFNVNFLDTSGEIRATAFNDFATKFNEILQEGKVYYVSKAKLQPAKPQFTNLTHPYELNLDRDTVIEECFDESN
chain 2: MASETPRVDPTEISNVNAPVFRIIAQIKSQPTESQLILQSPTISSKNGSEVEMITLNNIRVSMNKTFEIDSWYEFVCRNNDDGELGFLILDAVLCKFKE

Variants of B1 are the subject of one assay. Put plainly: microscale thermophoresis (MST); point at the highest DBD-A concentration, about 340 µM (read from x axis); parent: 130; read off a plot.
Turning to chain 2 R60E, the response was ~22 ‰ (ΔFnorm).

Another assay covers variants of B1. The assay is described as above. The source holds these as a separate data set.
As to chain 2 R78E, the response was ~51 ‰ (ΔFnorm).

Variants of B1 are the subject of the next assay. The assay is described as above. This is another data set of the same source.
Regarding chain 2 L88D, the response was ~8 ‰ (ΔFnorm).
